Patent publication US9803245B2, “Signature for predicting clinical outcome in human HER2+ breast cancer” (University Health Network, priority 2012, dated 2017)

How the values were obtained:
Format in all cases: in vivo, human
HER2+:ERα− BC patients [1] = assay: Pathological complete response (pCR) after neoadjuvant chemotherapy plus trastuzumab, by HTICS status; details: GSE22358 plus MD Anderson dataset
Experimental: We next sought to determine their response to trastuzumab. Only one patient cohort (n=27) of neoadjuvant chemotherapy plus trastuzumab with microarray data and pathological complete response (pCR) is publicly available (GSE22358-(26)). We combined it with a new dataset with clinical data (pCR, MFS and OS) from 50 HER2^+ patients who were treated with neoadjuvant chemotherapy (fluorouracil/epirubicin or adriamycin/cyclophosphamide-taxol) plus trastuzumab at the MD Anderson Cancer Center and monitored in the past 7.5 years. This group of HER2^+ patients included 32 ERα^− and 18 ERα^+ tumors.
2 datasets with pathological complete response (pCR) information were analyzed: GSE22358 and the MD Anderson cohorts. For pCR analysis, only samples with complete responses (pCR) were considered to be success and all other responses (partial, minor, near-complete) were regarded as failure. SSM for HTICS was calculated for each sample and number of patients with success/failure in HTICS^−/HTICS^+ groups was assessed by chi-square test to determine significance. For post-surgery analysis, such as % metastasis and overall survival/MFS Kaplan-Meier curves, 2 samples (one HER2^+:ERα^+, one HER2^+:ERα^−) were removed from the MD Anderson cohort due to a different adjuvant chemotherapy regimens. […] Statistical significance was calculated by chi-square test.

HER2+:ERα− BC patients [2] = assay: Retrospective analysis of metastasis post-surgery, trastuzumab-untreated versus chemo/trastuzumab-treated patients
Text: (§1) To begin to assess benefits from trastuzumab, we retrospectively determined the fraction of HER2^+:ERα^− patients that developed metastasis within 48 months post-surgery in the publicly available trastuzumab-untreated (n=33, FIG. 5C) versus neoadjuvant chemo/trastuzumab-treated patients (n=27, FIG. 6A). […] In contrast, for HTICS^+ patients, 12/18 (66%) relapsed in the chemo group compared to 5/18 (27%) in the chemo/trastuzumab group (FIG. 6B).
(§2) 2 datasets with pathological complete response (pCR) information were analyzed: GSE22358 and the MD Anderson cohorts. For pCR analysis, only samples with complete responses (pCR) were considered to be success and all other responses (partial, minor, near-complete) were regarded as failure. SSM for HTICS was calculated for each sample and number of patients with success/failure in HTICS^−/HTICS^+ groups was assessed by chi-square test to determine significance. For post-surgery analysis, such as % metastasis and overall survival/MFS Kaplan-Meier curves, 2 samples (one HER2^+:ERα^+, one HER2^+:ERα^−) were removed from the MD Anderson cohort due to a different adjuvant chemotherapy regimens. For % metastasis analysis, HER2^+:ERα^− samples from published cohorts were combined as Trastuzumab^− group and used to compare to the Trastuzumab-treated (Trastuzumab^+) patients from MD Anderson. Statistical significance was calculated by chi-square test.

HER2+:ERα− BC patients [3] = assay: Retrospective analysis of death / overall survival post-surgery, trastuzumab-untreated versus chemo/trastuzumab-treated patients; details: for deaths: MD Anderson, neoadjuvant chemotherapy plus trastuzumab, 7.5 years (90 months post-surgery)
Text: as §1, §2

In the case of trastuzumab, the “pathological complete response (pCR)” value (HER2+:ERα− BC patients [1]; HTICS+ HER2+:ERα− patients) is reported as 42%, the “pathological complete response (pCR)” value (HER2+:ERα− BC patients [1]; HTICS− HER2+:ERα− patients) is reported as 76% and the patients with metastases (HER2+:ERα− BC patients [2]; HTICS+ HER2+:ERα− patients, MD Anderson, neoadjuvant chemotherapy plus trastuzumab, 90 months post-surgery) is reported as 5. For the same substance, the “fraction of patients that developed metastasis (relapsed)” value (HER2+:ERα− BC patients [2]; HTICS+ HER2+:ERα− patients, chemo/trastuzumab group, within 48 months post-surgery) was 27%, the “reduction of metastasis / improvement of MFS” value (HER2+:ERα− BC patients [2]; HTICS+ HER2+:ERα− patients, chemo/trastuzumab versus trastuzumab-untreated (66%/27%)) was 2.4 fold and the patients with metastasis (HER2+:ERα− BC patients [2]; HTICS− HER2+:ERα− patients, MD Anderson, neoadjuvant chemotherapy plus trastuzumab, 90 months post-surgery) was “one”. For the same substance, the “fraction of patients that developed metastasis” value (HER2+:ERα− BC patients [2]; HTICS− HER2+:ERα− patients, chemo plus trastuzumab group, within 48 months post-surgery) was 11%, the “effect of trastuzumab on metastasis (MFS)” value (HER2+:ERα− BC patients [2]; HTICS− HER2+:ERα− patients, versus trastuzumab-negative group, 4-year period) was “did not have a significant effect; also recorded: insignificant” and the deaths (HER2+:ERα− BC patients [3]; HTICS+ HER2+:ERα− patients) was 5. For the same substance, the “fraction of patients that died” value (HER2+:ERα− BC patients [3]; HTICS+ HER2+:ERα− patients, chemo/trastuzumab treated cohort, 4-years post-surgery) was 22%, the “increase in OS” value (HER2+:ERα− BC patients [3]; HTICS+ HER2+:ERα− patients, chemo/trastuzumab versus trastuzumab-untreated) was 2.95 fold and 2.9 fold and the “difference in OS, trastuzumab-untreated versus chemo/trastuzumab-treated” value (HER2+:ERα− BC patients [3]; HTICS− HER2+:ERα− patients, 4-year period) was “no statistically significant difference; also recorded: insignificant”. The deaths (HER2+:ERα− BC patients [3]; HTICS− HER2+:ERα− patients) was “none and no death occurred”.

“And” between values parts separate entries of the source, which are not always exact repeats. Equal values may be shown once. “Also recorded” adds a separate entry of the source.
